Read-outs that look alike come from different tables or passages of the source.
What was measured:
canine CRF-R1 alpha = canine CRF-R1 alpha (Canis lupus familiaris, UniProt A0A8I3PHA9); assay: cAMP assay in transfected CHO-K1 cells; details: read-out: CRFR1 (IC50 nM); Dog; mean of 3 data points (n=3)
Procedure: (§1) cAMP was determined utilizing a DiscoverX HitHunter assay Enzyme Fragment Complementation (EF) technology purchased from Eurofins as described in the manufacturing instructions with some adjustments. IC50's were calculated from antagonist dose response curves utilizing interpolated cAMP levels and/or relative light unit (RLU) data. In addition, eXpress assay ready cAMP kits were also utilized with hCRF-R1 and hCRF-R2 division arrested cells according to the manufacturing instructions. Briefly, antagonist dilutions were prepared in assay buffer: Gibco Hank's Buffered Salt Solution (Gibco 30-410, HBSS) supplemented with + 10 mM HEPES Buffer (Gibco 15630-080), containing 6X Tween-20 (Gibco BP337-100; final concentration in wells 0.01%). After removal of the culture media in cells, assay buffer (30 µl) was added to each of the wells on the plate utilizing a multichannel pipettor (INTEGRA VIAFLO 300 µl). The various antagonist dilutions (7.5 µl) at 6X concentration were added to the wells according to the assay protocol plate map and the plate was incubated for 30 min at 37°C. To compare the effects of albumin on the antagonist IC50, assays were also performed by diluting the compounds as described above in assay buffer containing 0.1% [w:v] bovine serum albumin (BSA) or no BSA (Bovine Albumin Fraction V, Fatty Acid Free: MP Biomedicals, Cat. 152401, Lot. S8210). Immediately thereafter, 7.5 µl (6X) of agonist (hCRF for hCRF-R1, hUCN1 for hCRF-R2) was added at a final concentration of 1 nM/well; approximately EC80) followed by a further incubation for 30 min at 37°C. Following the incubation of the antagonists and agonists, 15 µl of Eurofins HitHunter cAMP antibody solution and 60 µl of the Working Detection Solution were added followed by a 1 h incubation at room temperature in the dark. Finally, 60 µl of cAMP Solution A was added followed by a further incubation overnight (approx. 18 h). The total final reaction volume was 180 µl/well. The resulting chemiluminescent signal was measured in a Tecan Spark luminometer.
(§2) For transient transfections, plasmid constructs were supplied by GenScript for rat, cynomolgus monkey, and canine CRF-R1 alpha, and CRF-R2 beta subtypes, as well as human CRF-R1 alpha and CRF-R2 alpha, beta and gamma subtypes all cloned into a pCDNA3.1 (Neo^R) vector. Briefly, Chinese hamster ovary strain K1 (CHO-K1) parental cells were expanded from a liquid nitrogen-stored working bank vial (1.0E+6 cells) by thawing at 37°C for 60 seconds, followed by expansion in 30 ml CHO-K1 Complete Media in a T-225 flask. Cells were passaged at least once by aspirating-out used culture media and washing adherent cells once in phosphate buffered saline without divalent cations (Intermountain BSS-PBS-1X6), followed by dislodging the adherent cells using Enzyme-free cell dissociation buffer (EFDB, Millipore Sigma C5789) and subsequent continued culture in complete media.
(§3) On Day 0, CHO-K1 parental cells were harvested when ~ 90% confluent, seeded into 6-well plates (Costar 3516) at approximately 400,000 cells/well, and cultured overnight in complete media. On Day +1 the cells were monitored for optimal confluence (60-75%), health, cell distribution and morphology, and the media was changed by aspiration with the addition of 2mL fresh complete media. Lipid:DNA complexes were prepared by either: (i) mixing 2.5 µg of plasmid DNA into 500 µl OptiMEM reduced serum media (Gibco Cat# 31985062) together with 9 µl of Lipofecamine LTX (Invitrogen™ Cat# 15338100) followed by incubation for 25 minutes at room temperature; or (ii) mixing 2.0 µg of plasmid DNA into 82 µl OptiMEM with 16 µl of FuGENE 6 (Promega Cat# E2691), at a 4:1 lipid:pDNA volume ratio, followed by incubation for 45 minutes at room temperature. Lipid:DNA complexes were subsequently added dropwise directly onto cells on the 6-well plate. […]

Protein sequences, listed by entry. Tags and fused reporters are not part of them. Chains listed by the source or under a name are the forms on record and can include a tag or linker. Residues count along the entry.
UniProt A0A8I3PHA9, 24-415 limits assumed: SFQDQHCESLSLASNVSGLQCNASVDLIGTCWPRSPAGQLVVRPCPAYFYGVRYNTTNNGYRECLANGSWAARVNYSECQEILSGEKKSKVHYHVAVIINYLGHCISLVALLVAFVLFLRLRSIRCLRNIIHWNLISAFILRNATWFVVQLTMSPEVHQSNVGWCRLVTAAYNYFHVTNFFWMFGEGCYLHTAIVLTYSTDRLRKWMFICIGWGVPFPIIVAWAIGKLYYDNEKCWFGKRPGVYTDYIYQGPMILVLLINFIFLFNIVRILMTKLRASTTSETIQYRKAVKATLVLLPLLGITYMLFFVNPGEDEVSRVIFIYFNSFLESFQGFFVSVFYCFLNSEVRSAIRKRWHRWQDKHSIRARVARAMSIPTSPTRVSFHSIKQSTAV
UniProt A0A8I3PB95, 31-437 limits assumed: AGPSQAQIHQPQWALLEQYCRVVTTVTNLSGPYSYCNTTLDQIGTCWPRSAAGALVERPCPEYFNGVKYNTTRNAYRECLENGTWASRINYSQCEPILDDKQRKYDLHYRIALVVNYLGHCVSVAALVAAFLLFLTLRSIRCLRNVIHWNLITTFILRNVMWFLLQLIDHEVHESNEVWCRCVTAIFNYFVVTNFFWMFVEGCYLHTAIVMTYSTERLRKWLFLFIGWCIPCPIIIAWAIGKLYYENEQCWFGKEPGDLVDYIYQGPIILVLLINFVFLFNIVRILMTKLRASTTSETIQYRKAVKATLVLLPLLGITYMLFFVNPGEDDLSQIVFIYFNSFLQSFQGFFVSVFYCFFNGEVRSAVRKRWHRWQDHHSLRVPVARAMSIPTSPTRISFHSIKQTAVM
UniProt A0A2K5WPT1, 24-415 limits assumed: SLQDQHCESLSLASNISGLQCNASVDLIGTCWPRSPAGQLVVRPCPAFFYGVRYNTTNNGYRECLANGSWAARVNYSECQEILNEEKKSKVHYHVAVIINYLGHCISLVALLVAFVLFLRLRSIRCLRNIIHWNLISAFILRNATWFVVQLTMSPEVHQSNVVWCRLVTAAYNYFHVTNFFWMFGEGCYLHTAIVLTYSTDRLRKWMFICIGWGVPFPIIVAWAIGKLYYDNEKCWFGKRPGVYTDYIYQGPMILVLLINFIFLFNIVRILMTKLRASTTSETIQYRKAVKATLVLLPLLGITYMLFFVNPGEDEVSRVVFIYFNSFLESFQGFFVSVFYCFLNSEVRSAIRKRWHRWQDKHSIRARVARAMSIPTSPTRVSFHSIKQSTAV
UniProt A0A2K5WS31, 30-431 limits assumed: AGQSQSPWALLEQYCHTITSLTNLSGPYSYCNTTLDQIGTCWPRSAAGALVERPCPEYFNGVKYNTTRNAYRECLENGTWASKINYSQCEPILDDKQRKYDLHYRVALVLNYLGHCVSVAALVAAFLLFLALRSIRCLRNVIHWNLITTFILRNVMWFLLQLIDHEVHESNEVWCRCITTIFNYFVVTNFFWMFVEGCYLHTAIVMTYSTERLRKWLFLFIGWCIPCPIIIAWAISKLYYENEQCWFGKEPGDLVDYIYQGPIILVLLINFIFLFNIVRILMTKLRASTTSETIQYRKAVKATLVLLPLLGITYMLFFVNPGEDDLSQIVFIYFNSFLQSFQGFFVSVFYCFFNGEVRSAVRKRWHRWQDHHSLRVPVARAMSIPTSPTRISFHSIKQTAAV
UniProt P34998, 24-415 limits assumed: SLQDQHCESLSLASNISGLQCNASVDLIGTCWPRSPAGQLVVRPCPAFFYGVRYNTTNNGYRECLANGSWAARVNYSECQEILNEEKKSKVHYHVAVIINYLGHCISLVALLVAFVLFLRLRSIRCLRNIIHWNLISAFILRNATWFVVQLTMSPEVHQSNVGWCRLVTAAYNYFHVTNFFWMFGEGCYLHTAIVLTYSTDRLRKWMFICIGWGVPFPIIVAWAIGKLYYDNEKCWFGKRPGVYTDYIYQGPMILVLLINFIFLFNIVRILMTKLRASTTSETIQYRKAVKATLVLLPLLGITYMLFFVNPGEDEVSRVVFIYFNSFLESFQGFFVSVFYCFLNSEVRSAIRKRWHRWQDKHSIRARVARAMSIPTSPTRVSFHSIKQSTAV
UniProt Q13324, whole entry: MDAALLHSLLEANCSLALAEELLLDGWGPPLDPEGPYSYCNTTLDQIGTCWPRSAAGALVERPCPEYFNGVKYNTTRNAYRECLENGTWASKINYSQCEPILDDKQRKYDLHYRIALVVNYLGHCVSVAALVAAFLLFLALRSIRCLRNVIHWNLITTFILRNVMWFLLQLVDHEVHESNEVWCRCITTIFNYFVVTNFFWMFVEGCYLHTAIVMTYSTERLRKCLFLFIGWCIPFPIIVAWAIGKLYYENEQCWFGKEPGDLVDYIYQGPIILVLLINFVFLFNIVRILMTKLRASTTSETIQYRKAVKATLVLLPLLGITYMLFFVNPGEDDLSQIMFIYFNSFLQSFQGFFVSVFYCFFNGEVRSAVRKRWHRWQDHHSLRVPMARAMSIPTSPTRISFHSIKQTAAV
UniProt Q13324, 1-438 with tags or gaps: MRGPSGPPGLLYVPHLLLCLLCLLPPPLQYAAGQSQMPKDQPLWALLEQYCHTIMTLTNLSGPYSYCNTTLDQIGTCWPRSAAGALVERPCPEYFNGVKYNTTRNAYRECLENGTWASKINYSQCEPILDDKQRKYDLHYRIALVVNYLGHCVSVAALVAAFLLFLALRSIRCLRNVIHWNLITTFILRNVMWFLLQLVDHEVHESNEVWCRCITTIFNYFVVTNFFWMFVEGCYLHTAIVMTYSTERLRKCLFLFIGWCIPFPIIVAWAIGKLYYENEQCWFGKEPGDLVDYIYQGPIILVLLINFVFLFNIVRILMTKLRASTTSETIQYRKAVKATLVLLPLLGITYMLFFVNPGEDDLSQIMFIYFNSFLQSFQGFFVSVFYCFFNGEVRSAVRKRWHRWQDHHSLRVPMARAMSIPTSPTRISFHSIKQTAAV
UniProt Q13324, 1-397 with tags or gaps: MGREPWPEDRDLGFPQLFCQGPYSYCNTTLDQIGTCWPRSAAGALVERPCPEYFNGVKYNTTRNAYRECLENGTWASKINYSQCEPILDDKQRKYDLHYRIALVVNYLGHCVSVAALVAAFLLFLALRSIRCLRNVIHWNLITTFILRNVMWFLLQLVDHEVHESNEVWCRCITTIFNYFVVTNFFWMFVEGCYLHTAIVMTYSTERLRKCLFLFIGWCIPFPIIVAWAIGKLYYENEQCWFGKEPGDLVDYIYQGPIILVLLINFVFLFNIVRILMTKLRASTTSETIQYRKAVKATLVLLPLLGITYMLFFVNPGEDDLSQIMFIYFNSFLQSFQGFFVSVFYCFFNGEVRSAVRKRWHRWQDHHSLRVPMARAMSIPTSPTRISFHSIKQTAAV
UniProt P35353, 24-415 limits assumed: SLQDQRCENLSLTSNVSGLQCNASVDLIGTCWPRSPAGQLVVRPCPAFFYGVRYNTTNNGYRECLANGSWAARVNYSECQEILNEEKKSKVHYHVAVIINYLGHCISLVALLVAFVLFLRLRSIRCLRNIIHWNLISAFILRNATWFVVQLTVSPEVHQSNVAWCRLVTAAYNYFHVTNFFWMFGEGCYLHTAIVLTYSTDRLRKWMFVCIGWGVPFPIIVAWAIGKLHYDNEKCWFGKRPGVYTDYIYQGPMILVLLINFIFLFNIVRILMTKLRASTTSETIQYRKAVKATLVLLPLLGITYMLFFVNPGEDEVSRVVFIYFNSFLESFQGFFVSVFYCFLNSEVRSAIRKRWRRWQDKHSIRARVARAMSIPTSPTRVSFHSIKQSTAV
UniProt P47866, 1-431 with tags or gaps: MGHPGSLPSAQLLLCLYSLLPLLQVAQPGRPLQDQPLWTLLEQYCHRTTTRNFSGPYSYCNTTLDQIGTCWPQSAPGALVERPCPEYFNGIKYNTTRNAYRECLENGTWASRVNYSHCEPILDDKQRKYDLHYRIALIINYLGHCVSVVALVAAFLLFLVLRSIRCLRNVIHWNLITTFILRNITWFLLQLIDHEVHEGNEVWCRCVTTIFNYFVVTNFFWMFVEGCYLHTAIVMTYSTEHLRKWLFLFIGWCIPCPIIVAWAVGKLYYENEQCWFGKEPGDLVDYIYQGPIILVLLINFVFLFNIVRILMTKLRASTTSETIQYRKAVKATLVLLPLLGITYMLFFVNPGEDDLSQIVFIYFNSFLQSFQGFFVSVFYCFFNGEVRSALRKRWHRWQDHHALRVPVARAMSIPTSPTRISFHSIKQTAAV

canine CRF-R2 beta = canine CRF-R2 beta (Canis lupus familiaris, UniProt A0A8I3PB95); assay: cAMP assay in transfected CHO-K1 cells; details: read-out: CRFR2β (IC50 nM); Dog; mean of 3 data points (n=3)
Procedure: as §1, §2, §3

[1] = target: cynomolgus monkey CRF-R1 alpha (Macaca fascicularis, UniProt A0A2K5WPT1); assay: cAMP assay in transfected CHO-K1 cells; details: read-out: CRFR1 (IC50 nM); Cyno; mean of 3 data points (n=3)
Procedure: as §1, §2, §3

[2] = target: cynomolgus monkey CRF-R2 beta (Macaca fascicularis, UniProt A0A2K5WS31); assay: cAMP assay in transfected CHO-K1 cells; details: read-out: CRFR2β (IC50 nM); Cyno; mean of 3 data points (n=3)
Procedure: as §1, §2, §3

human CRF-R1 alpha = human CRF-R1 alpha (Homo sapiens, UniProt P34998); assay: cAMP assay in transfected CHO-K1 cells; details: mean of 3 data points (n=3)
Procedure: as §1, §2, §3

human CRF-R2 alpha = human CRF-R2 alpha (Homo sapiens, UniProt Q13324); assay: cAMP assay in transfected CHO-K1 cells; details: for IC50: mean of 3 data points (n=3)
Procedure: as §1, §2, §3

human CRF-R2 beta = human CRF-R2 beta (Homo sapiens, UniProt Q13324); assay: cAMP assay in transfected CHO-K1 cells; details: for IC50: mean of 3 data points (n=3)
Procedure: as §1, §2, §3

human CRF-R2 gamma = human CRF-R2 gamma (Homo sapiens, UniProt Q13324); assay: cAMP assay in transfected CHO-K1 cells; details: read-out: CRFR2γ (IC50 nM), mean of 3 data points (n=3)
Procedure: as §1, §2, §3

rat CRF-R1 alpha = rat CRF-R1 alpha (Rattus norvegicus, UniProt P35353); assay: cAMP assay in transfected CHO-K1 cells; details: read-out: CRFR1 (IC50 nM), mean of 3 data points (n=3)
Procedure: as §1, §2, §3

rat CRF-R2 beta = rat CRF-R2 beta (Rattus norvegicus, UniProt P47866); assay: cAMP assay in transfected CHO-K1 cells; details: read-out: CRFR2β (IC50 nM), mean of 3 data points (n=3)
Procedure: as §1, §2, §3

[3] = Viscosity (no method described); details: in either 10mM phosphate at pH 7 or 10mM TRIS at pH8

IC50 (canine CRF-R1 alpha): 2.4 nM | IC50 (canine CRF-R2 beta): 24 nM | IC50 [1]: 1.2 nM | IC50 [2]: 24 nM | IC50 (human CRF-R1 alpha; read-out: CRFR1 (IC50 nM), Human): 1.6 nM | IC50 (human CRF-R1 alpha; read-out: IC50 for CRFR1, Table 16): 1.6 nM | selectivity for CRF1 over CRFR2α (human CRF-R2 alpha; ratio of cAMP IC50 values): approximately 10 times | IC50 (human CRF-R2 alpha; read-out: CRFR2α (IC50 nM), Human): 16 nM | IC50 (human CRF-R2 alpha; read-out: IC50 for CRFR2α, Table 16): 16 nM | selectivity for CRF1 over CRFR2β (human CRF-R2 beta; ratio of cAMP IC50 values): approximately 8 times | IC50 (human CRF-R2 beta; read-out: CRFR2β (IC50 nM), Human): 12 nM | IC50 (human CRF-R2 beta; read-out: IC50 for CRFR2β, Table 16): 12 nM | IC50 (human CRF-R2 gamma): 3.8 nM | IC50 (rat CRF-R1 alpha): 1.4 nM | IC50 (rat CRF-R2 beta): 40 nM | viscosity [3]: low viscosity
Substance: Ac-Asp-Leu-Thr-D-Phe-His-Leu-Leu-Arg-Glu-Val-Leu-Glu-Nle-K*-Arg-Glu-Glu-Gln-cVal-Ala-Gln-E#-Ala-Glu-K#-Asn-Arg-Lys-Leu-Nle-Glu-cVal-Ala-CONH2
